The numbers were not newly measured in US6022951A, “Streptavidin mutants” (priority 1996, dated 2000), which cites them from elsewhere.

For the data set the following is noted: pH 7 at 25° C.; cited from earlier work.

Consider streptavidin, for which the “dissociation rate constant for streptavidin-biotin complexes” value was 2.8e-06 s⁻¹.
